Data reported in US10760052B2, “Method of inhibiting tau phosphorylation” (priority 2012, dated 2020).

Chains of the proteins cited; added tags and fusions are not shown.
UniProt P33535, whole entry: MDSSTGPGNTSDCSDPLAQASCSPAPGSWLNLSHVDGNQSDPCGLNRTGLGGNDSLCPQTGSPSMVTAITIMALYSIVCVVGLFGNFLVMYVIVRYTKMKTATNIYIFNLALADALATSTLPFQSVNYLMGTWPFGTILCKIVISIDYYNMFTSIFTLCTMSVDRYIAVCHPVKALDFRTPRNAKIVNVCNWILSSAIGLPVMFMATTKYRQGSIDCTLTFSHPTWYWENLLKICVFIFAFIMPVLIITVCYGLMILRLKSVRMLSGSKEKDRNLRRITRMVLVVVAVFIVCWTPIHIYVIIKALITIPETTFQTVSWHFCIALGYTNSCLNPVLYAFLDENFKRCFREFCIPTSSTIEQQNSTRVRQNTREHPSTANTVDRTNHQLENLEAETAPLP

Molecular target: T1, mu opiate receptor (MOR) (Rattus norvegicus, UniProt P33535)
T1 construct: from tissue; host or cells: striatum (membrane preparation)
Format: biochemical

O=S(=O)(c1ccc(F)cc1)N1CCOC12CCN(CC1CC1)CC2 [F-C0134]
% DAMGO (0.1 μM): 138.1%
% DAMGO (1 μM): 111.4%
% DAMGO + BFNA: 116.2%
[35S]GTPγS binding, FLNA-Binding Compound as Agonist at 0.1 μM: 290.6%
[35S]GTPγS binding, FLNA-Binding Compound as Agonist at 1 μM: 378.9%
[35S]GTPγS binding, FLNA-Binding Compound as Agonist at 1 μM + BFNA: 66.6%
